Here are results for one substance from patent US20210205271A1 (The Johns Hopkins University, priority 2018, published 2021).

For series [1] the following is noted: mouse, in vivo, 30 mg/kg.
The conditions of series [2]: mouse, in vivo, po, 30 mg/kg.
For series [3] the following is noted: mouse, in vivo, iv, 1.5 mg/kg.

Turning to Mebendazole [MBZ-C], in series [1], the “MBZ plasma concentration at 1 h post oral administration” value stood at 2.86 ± 0.25 nmol/mL. Also, in series [2], the “brain AUC0-t” value came out at 13.1 µM·h. Besides, the t1/2 in series [3] came out at 43.8 min.
